Tested on: SC-β cells / SC-islets
Test: Glucose stimulated insulin secretion (GSIS), human C-peptide per 1000 cells
Type: cell-based

low HSA: human serum albumin; low = 0.05%
GSIS function of SC-β cells (addition of 1% HSA): can increase GSIS function | glucose stimulated insulin secretion (GSIS) (low HSA (0.05%) in modified S5 media, 2.8 mM and 20 mM glucose, S6d12): associated with lower glucose stimulated insulin secretion (GSIS)
